Assay results from the CheMixHub ionic liquid set.

Test: xn = mol fraction of the nth substance listed
Conditions: 100 kPa

CC(=O)[O-].CCC[N+](CCC)(CCC)CCC + CCCCCCCCCCCCOS(=O)(=O)[O-].[Na+] + O
viscosity [mPa·s]
Conditions | 293.15 K | 298.15 K | 303.15 K | 308.15 K | 313.15 K | 318.15 K
x2 = 1.81e-06, x1 = 0.0001802 | 1.002 | 0.896 | 0.787 | 0.705 | 0.638 | 0.589
x2 = 3.61e-06, x1 = 0.0001802 | 1.004 | 0.898 | 0.789 | 0.708 | 0.64 | 0.592
x2 = 5.42e-06, x1 = 0.0001802 | 1.005 | 0.902 | 0.792 | 0.709 | 0.644 | 0.593
x2 = 7.22e-06, x1 = 0.0001802 | 1.006 | 0.902 | 0.795 | 0.711 | 0.645 | 0.595
x2 = 9.03e-06, x1 = 0.0001802 | 1.007 | 0.903 | 0.797 | 0.711 | 0.647 | 0.595
x2 = 1.084e-05, x1 = 0.0001802 | 1.007 | 0.903 | 0.8 | 0.714 | 0.648 | 0.599
x2 = 1.264e-05, x1 = 0.0001802 | 1.007 | 0.903 | 0.801 | 0.718 | 0.648 | 0.6
x2 = 1.445e-05, x1 = 0.0001802 | 1.007 | 0.903 | 0.803 | 0.722 | 0.649 | 0.601
x2 = 1.625e-05, x1 = 0.0001802 | 1.008 | 0.904 | 0.805 | 0.723 | 0.65 | 0.601
x2 = 1.806e-05, x1 = 0.0001802 | 1.008 | 0.904 | 0.806 | 0.726 | 0.65 | 0.601
x2 = 1.987e-05, x1 = 0.0001802 | 1.008 | 0.904 | 0.806 | 0.727 | 0.65 | 0.601
x2 = 2.167e-05, x1 = 0.0001802 | 1.008 | 0.904 | 0.806 | 0.727 | 0.651 | 0.601
x2 = 2.348e-05, x1 = 0.0001802 | 1.008 | 0.905 | 0.806 | 0.727 | 0.651 | 0.602
x2 = 2.528e-05, x1 = 0.0001802 | 1.008 | 0.905 | 0.806 | 0.727 | 0.651 | 0.602
x2 = 2.709e-05, x1 = 0.0001802 | 1.009 | 0.905 | 0.807 | 0.727 | 0.651 | 0.602

CC(=O)[O-].CCC[N+](CCC)(CCC)CCC + CCCCCCCCCCCC[N+](C)(C)C.[Br-] + O
viscosity [mPa·s]
Conditions | x2 = 5.418e-05, x1 = 0.0001802 | x2 = 0.0001084, x1 = 0.0001801 | x2 = 0.0001625, x1 = 0.0001801 | x2 = 0.0002167, x1 = 0.0001801 | x2 = 0.0002708, x1 = 0.0001801 | x2 = 0.000325, x1 = 0.0001801 | x2 = 0.0003791, x1 = 0.0001801 | x2 = 0.0004333, x1 = 0.0001801 | x2 = 0.0004874, x1 = 0.0001801 | x2 = 0.0005415, x1 = 0.0001801
293.15 K | 1.025 | 1.027 | 1.031 | 1.032 | 1.034 | 1.034 | 1.035 | 1.036 | 1.036 | 1.036
298.15 K | 0.916 | 0.919 | 0.92 | 0.92 | 0.924 | 0.927 | 0.928 | 0.929 | 0.93 | 0.93
303.15 K | 0.781 | 0.782 | 0.784 | 0.787 | 0.789 | 0.789 | 0.791 | 0.792 | 0.793 | 0.794
308.15 K | 0.702 | 0.703 | 0.704 | 0.705 | 0.707 | 0.707 | 0.709 | 0.71 | 0.711 | 0.711
313.15 K | 0.646 | 0.647 | 0.648 | 0.649 | 0.65 | 0.651 | 0.652 | 0.653 | 0.654 | 0.654
318.15 K | 0.589 | 0.592 | 0.592 | 0.594 | 0.595 | 0.595 | 0.597 | 0.598 | 0.598 | 0.599
